Laboratory results reported in patent US7501418B2, “Fused heterocyclic isoxazoline derivatives and their use as anti-depressants” (Janssen Pharmaceutica, N.V., priority 2002, dated 2009).

Amino acid sequences for entries named in this document (tags omitted).
UniProt P08913, whole entry: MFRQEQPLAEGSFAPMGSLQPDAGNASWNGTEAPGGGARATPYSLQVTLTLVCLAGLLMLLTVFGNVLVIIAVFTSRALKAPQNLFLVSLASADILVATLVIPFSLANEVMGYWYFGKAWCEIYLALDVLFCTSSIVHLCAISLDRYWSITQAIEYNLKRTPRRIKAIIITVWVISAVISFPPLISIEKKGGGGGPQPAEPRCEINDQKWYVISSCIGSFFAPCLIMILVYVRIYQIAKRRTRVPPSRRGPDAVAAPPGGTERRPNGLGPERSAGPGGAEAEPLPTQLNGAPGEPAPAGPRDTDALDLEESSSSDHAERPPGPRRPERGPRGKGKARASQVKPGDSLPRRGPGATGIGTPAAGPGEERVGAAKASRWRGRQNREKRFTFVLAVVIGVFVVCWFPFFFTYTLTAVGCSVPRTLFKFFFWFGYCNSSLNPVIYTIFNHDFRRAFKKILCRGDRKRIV
UniProt P18089, whole entry: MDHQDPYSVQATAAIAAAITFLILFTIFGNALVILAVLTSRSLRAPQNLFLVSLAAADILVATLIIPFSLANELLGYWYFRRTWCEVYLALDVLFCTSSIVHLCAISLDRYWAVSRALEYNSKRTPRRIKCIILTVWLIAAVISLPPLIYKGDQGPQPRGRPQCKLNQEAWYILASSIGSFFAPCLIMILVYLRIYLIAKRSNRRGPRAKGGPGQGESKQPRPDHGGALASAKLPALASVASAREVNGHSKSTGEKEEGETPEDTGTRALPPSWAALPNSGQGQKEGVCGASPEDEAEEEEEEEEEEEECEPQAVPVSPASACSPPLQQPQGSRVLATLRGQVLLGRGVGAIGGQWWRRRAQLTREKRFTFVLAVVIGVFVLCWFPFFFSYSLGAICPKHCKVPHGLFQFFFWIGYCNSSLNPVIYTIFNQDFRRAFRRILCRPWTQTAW
UniProt P18825, whole entry: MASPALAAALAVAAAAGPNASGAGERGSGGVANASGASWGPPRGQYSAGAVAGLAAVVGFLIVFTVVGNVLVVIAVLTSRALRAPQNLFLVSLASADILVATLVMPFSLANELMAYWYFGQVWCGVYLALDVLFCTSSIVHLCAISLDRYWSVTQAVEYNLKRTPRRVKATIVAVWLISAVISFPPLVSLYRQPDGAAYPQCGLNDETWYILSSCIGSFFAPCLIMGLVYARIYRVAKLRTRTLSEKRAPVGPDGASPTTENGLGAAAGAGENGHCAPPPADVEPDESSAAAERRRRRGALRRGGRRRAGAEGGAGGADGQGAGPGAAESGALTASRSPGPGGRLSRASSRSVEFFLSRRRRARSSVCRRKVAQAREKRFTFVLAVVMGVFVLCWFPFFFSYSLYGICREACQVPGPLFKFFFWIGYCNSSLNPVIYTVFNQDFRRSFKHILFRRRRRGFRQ
UniProt P31645, whole entry: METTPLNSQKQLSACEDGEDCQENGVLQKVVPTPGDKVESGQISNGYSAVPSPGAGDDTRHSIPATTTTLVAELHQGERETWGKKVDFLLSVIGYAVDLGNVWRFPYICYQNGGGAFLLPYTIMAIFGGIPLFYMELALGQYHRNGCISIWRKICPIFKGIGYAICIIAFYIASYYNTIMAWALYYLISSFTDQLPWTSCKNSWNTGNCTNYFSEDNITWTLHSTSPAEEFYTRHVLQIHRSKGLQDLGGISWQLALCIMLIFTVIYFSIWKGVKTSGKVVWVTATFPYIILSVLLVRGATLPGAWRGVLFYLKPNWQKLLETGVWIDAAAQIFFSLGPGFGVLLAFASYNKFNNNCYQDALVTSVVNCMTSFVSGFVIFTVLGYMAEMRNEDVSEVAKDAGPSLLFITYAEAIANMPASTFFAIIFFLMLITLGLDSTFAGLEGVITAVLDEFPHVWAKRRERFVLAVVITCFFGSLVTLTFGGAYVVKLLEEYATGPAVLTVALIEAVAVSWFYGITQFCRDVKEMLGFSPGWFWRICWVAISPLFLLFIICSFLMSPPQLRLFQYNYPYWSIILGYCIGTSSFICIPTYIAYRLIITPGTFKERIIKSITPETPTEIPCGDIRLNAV

Key:
hα2A receptor = hα2A receptor (Homo sapiens, UniProt P08913); test: Radioligand binding experiment for α2A-adrenergic receptor ([3H]-raulwolscine); conditions: CHO cell membranes with human α2A receptor, [3H]raulwolscine 1 nM
hα2B receptor = hα2B receptor (Homo sapiens, UniProt P18089); test: Radioligand binding experiment for α2B-adrenergic receptor ([3H]-raulwolscine); conditions: CHO cell membranes with human α2B receptor, [3H]raulwolscine 1 nM
Description: In general, a low concentration of a radioligand with a high binding affinity for a particular receptor or transporter is incubated with a sample of a tissue preparation enriched in a particular receptor or transporter or with a preparation of cells expressing cloned human receptors in a buffered medium. During the incubation, the radioligand binds to the receptor or transporter. When equilibrium of binding is reached, the receptor bound radioactivity is separated from the non-bound radioactivity, and the receptor- or transporter-bound activity is counted. The interaction of the test compounds with the receptor is assessed in competition binding experiments. Various concentrations of the test compound are added to the incubation mixture containing the receptor- or transporter preparation and the radioligand. The test compound in proportion to its binding affinity and its concentration inhibits binding of the radioligand. […] Filter-bound radioactivity was determined by scintillation counting in a Topcount (Packard, Meriden, Conn.) and results were expressed as counts per minute (cpm). Non-specific binding was determined in the presence of 1 μM oxymetazoline for hα2A- and hα2B receptors and 1 μM spiroxatrine for hα2C receptors. Data from assays in the presence of compound were calculated as a percentage of total binding measured in the absence of test compound. […]

hα2C receptor = hα2C receptor (Homo sapiens, UniProt P18825); test: Radioligand binding experiment for α2C-adrenergic receptor ([3H]-raulwolscine); conditions: CHO cell membranes with human α2C receptor, [3H]raulwolscine 1 nM
h5-HT transporter = h5-HT transporter (Homo sapiens, UniProt P31645); test: Radioligand binding experiment for 5-HT transporter ([3H]paroxetine); conditions: human platelet membranes, [3H]paroxetine 0.5 nM
[1] = tested form: ethanedioate (oxalate) 1:2

CCn1ccc2cc3c(cc21)OCC1C3=NOC1CN1CCN(C/C(C)=C/c2ccccc2)CC1 (centres unmarked)
hα2A (pIC50) (hα2A receptor): 7.9 | hα2B (pIC50) (hα2B receptor): 8.4 | hα2C (pIC50) (hα2C receptor): 8.6 | 5-HTT (pIC50) (h5-HT transporter): 8.3

C/C(=C\c1ccccc1)CN1CCN(CC2ON=C3c4ncccc4OCC32)CC1 (centres unmarked)
hα2A (pIC50) (hα2A receptor; [1]): 8.9 | hα2C (pIC50) (hα2C receptor; [1]): 8.4 | 5-HTT (pIC50) (h5-HT transporter; [1]): 6.7

c1cnc2c(c1)OCC1C2=NOC1CN1CCN(Cc2ccc3ccccc3c2)CC1 (centres unmarked)
hα2A (pIC50) (hα2A receptor): 8.1 | hα2C (pIC50) (hα2C receptor): 7.3 | 5-HTT (pIC50) (h5-HT transporter): 7.4

COCCOCn1ccc2cc3c(cc21)OCC1C3=NOC1CN1CCN(C/C(C)=C/c2ccccc2)CC1 (centres unmarked)
hα2A (pIC50) (hα2A receptor): 8.1 | hα2B (pIC50) (hα2B receptor): 8.1 | hα2C (pIC50) (hα2C receptor): 9.1 | 5-HTT (pIC50) (h5-HT transporter): 8.7

C/C(=C\CN1CCN(CC2ON=C3c4ncccc4OCC32)CC1)c1ccccc1 (centres unmarked)
hα2A (pIC50) (hα2A receptor): 8.7 | hα2C (pIC50) (hα2C receptor): 7.8 | 5-HTT (pIC50) (h5-HT transporter): 6.2
